The entries are a selection whose mix differs from that of the whole data set. Calls of active or inactive are those of the source.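 Rule for the calls: active = inhibition above a per-plate cutoff, the mean inhibition of test compounds on that plate plus 3 SD (cut at about 49% in these data); inactive = the rest.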

Sequences of proteins named here, by UniProt entry; tags and fusion partners are left off. A change or cut given only in a name is not applied to a line headed by its entry.
UniProt Q96RJ0: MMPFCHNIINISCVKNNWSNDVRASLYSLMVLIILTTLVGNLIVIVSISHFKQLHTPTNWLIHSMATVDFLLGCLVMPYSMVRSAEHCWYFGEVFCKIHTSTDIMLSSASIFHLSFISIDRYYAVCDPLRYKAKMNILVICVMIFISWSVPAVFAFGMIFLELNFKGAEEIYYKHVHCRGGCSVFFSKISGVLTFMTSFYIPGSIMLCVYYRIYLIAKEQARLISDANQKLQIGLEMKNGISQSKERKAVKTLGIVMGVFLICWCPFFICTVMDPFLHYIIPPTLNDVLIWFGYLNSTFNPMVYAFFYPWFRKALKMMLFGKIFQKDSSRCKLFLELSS

For this assay, the target named is Trace amine-associated receptor 1 (Homo sapiens) (UniProt Q96RJ0). The assay is described as follows: blockers of beta-PEA-driven TAAR1 calcium signal – Fluo-8 calcium fluorescence, CHO RD-HGA16 cells, primary screen (AID 624466).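 Note: 0% = DMSO plus EC80 beta-PEA response and 100% = DMSO alone without agonist.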 The following applies: CHO RD-HGA16 TAAR1, Fluo-8 calcium fluorescence, antagonist; at 3 µM; stronger effect = higher value.
Usually inhibition stands for the drop in the measured response relative to a control, in per cent. `Cc1ccc(NP(=O)(Oc2cccc(C)c2)Oc2cccc(C)c2)nc1`: the inhibition was inactive: 2.69%.

For `c1ccc(-c2nn[nH]n2)c(-c2nn[nH]n2)c1`, the inhibition was inactive: 3.74%.

On to `CC(=O)Nc1ccc(Oc2c([N+](=O)[O-])cc([N+](=O)[O-])cc2[N+](=O)[O-])cc1`, for which the inhibition is inactive: -10.6%.

`CC(=O)Nc1ccc([As](=O)(O)O)c(O)c1`: the inhibition is inactive: 12.3%.

Turning to `COC(=O)C1(C)COP(=O)(NCc2ccccc2)OC1` (stereo not given), the inhibition is inactive: -28.7%.

Turning to `CC(=O)c1ccc(N2CC2c2ccncc2)cc1` (stereo not given), the inhibition is inactive: -9.24%.

For `N#C/C(=C\c1ccc(N(CCBr)CCBr)cc1)C(N)=O`, the inhibition is inactive: -4.39%.

Take `C[C@H]1OP(=O)(Oc2ccccc2)C[C@@H]2O[C@@H]21` (stereo not given in full): the inhibition is inactive: -18.9%.

Consider `C[C@@H]1C=CCP(=O)(Oc2ccccc2)O1` (stereo not given in full), for which the inhibition was inactive: -13.5%.

With `Cc1ccccc1CN(C)C(=O)COC(=O)C(O)(c1ccccc1)c1ccccc1`, the inhibition was inactive: -16.8%.

For the molecule `CCc1cc(O)c([N+](=O)[O-])c(C)c1[N+](=O)[O-]`, the inhibition was inactive: 10.4%.

As for `CC(C)(C)C(=O)NC(Sc1ccccc1)C(Cl)(Cl)Cl` (stereo not given), the inhibition is inactive: -13.9%.

For `CCOc1ccc(C2=NCC(CBr)S2)cc1` (stereo not given), the inhibition was inactive: 4.57%.

Consider `O=P1(Nc2nc3ccc(Cl)cc3s2)COc2ccccc2O1` (stereo not given), for which the inhibition was inactive: -1.19%.

With `c1nnnn1CCn1cnnn1`, the inhibition is inactive: -5.52%.

Regarding `CC(C)C(=O)NC(Sc1ccccc1)C(Cl)(Cl)Cl` (stereo not given), the inhibition is inactive: 0.7%.

As to `O=P(Nc1nccs1)(c1ccccc1)c1ccccc1`, the inhibition is inactive: -0.28%.

As to `C(Cc1nn[nH]n1)Cc1nn[nH]n1`, the inhibition was inactive: -5.54%.

Regarding `Nc1ccc([As](=O)(O)c2ccc([N+](=O)[O-])cc2)cc1`, the inhibition is inactive: -7.88%.

For the molecule `C/C(N)=N\P(=O)(OCc1ccccc1)OCc1ccccc1`, the inhibition was inactive: -4.51%.

Regarding `O=C(OC1CN2CCC1CC2)c1cccc(Cl)c1` (stereo not given), the inhibition was inactive: -15.7%.

As for `O=[N+]([O-])c1ncn(CCn2cnc([N+](=O)[O-])n2)n1`, the inhibition was inactive: -17.3%.

On to `CC(=O)NC(SC(=S)N(C)C)C(Cl)(Cl)Cl` (stereo not given), for which the inhibition is inactive: 4.86%.

For `O=[As](O)(c1ccccc1)c1ccc(O)cc1`, the inhibition was inactive: -20.2%.

Turning to `C[C@H]1OP(=O)(Oc2ccccc2)[C@H](O)[C@H](O)[C@H]1N=[N+]=[N-]` (stereo not given in full), the inhibition is inactive: 17.8%.

As to `O=P(Nc1nc2ccccc2s1)(c1ccccc1)c1ccccc1`, the inhibition is inactive: 3.36%.

For the molecule `COc1ccc(N)c([N+](=O)[O-])c1[N+](=O)[O-]`, the inhibition is inactive: -23.7%.

Take `Nc1ccc(CCCCOc2ccccc2)cc1`: the inhibition was inactive: -0.53%.

Take `O=P(Nc1ccccn1)(c1ccc(Br)cc1)c1ccc(Br)cc1`: the inhibition was inactive: -7.74%.

Take `CN(C)C1(CNC(=O)c2ccc(Cl)c(S(N)(=O)=O)c2)CCCCC1`: the inhibition was inactive: -5.12%.

In the case of `COC(=O)C1(C)COP(=O)(Nc2ccccc2)OC1` (stereo not given), the inhibition is inactive: -12.6%.

For `O=[N+]([O-])c1cccc(NC2=NCC(CBr)S2)c1` (stereo not given), the inhibition is inactive: -8.88%.

Regarding `O=C(O)CNc1ccc([As](=O)(O)O)cc1`, the inhibition is inactive: -8.87%.

Consider `CC(C)(C)C(=O)NC(Sc1ccncn1)C(Cl)(Cl)Cl` (stereo not given), for which the inhibition is inactive: -18.9%.

With `O=[N+]([O-])c1ncn(CCn2ncnc2[N+](=O)[O-])n1`, the inhibition is inactive: -9.08%.

On to `O=C(Nc1cc([As](=O)(O)O)ccc1O)c1ccccc1`, for which the inhibition is inactive: -25.5%.

With `O=P1(N(CCCl)CCCl)OCCCS1` (stereo not given), the inhibition is inactive: -12.9%.

Turning to `CN(C)C(=O)OCCc1n(C)cc[n+]1C`, the inhibition was inactive: 8.11%.

For the molecule `CC(C)c1nc(Nc2ccccc2)n(P(=O)(N(C)C)N(C)C)n1`, the inhibition was inactive: -20.6%.

Consider `CC(C)=N/N=C(\N)N[N+](=O)[O-]`, for which the inhibition was inactive: 4.83%.

As to `CC1CCN(C(=O)Oc2c(Cl)cc(Cl)c3cccnc23)CC1`, the inhibition was inactive: 19.1%.

As to `c1cc(-c2nn[nH]n2)ccc1-c1nn[nH]n1`, the inhibition was inactive: 1.87%.

Turning to `C[N+]1=C2C=CC=CC=C2SC12C([N+](=O)[O-])=CC([N+](=O)[O-])=C[C-]2[N+](=O)[O-]` (stereo not given), the inhibition was inactive: 25.9%.

Consider `Nc1ccc([As](=O)(O)c2ccc(N)cc2)cc1`, for which the inhibition is inactive: -11.6%.

As for `CCN(/C(=N/P(=O)(N1CCOCC1)N1CCOCC1)N1CCOCC1)c1ccc(OC)cc1`, the inhibition is inactive: -16.9%.

As to `O=[N+]([O-])c1cccc2n[nH]nc12`, the inhibition was inactive: -5.05%.

Take `CC(=O)N1C2C3N(C(C)=O)C1C1N(C(C)=O)C(C(N1C(C)=O)N3C(C)=O)N2C(C)=O`: the inhibition is inactive: -15.2%.

Consider `CCc1nc2c(n1)c1c(non1O)c1c2no[n+]1[O-]`, for which the inhibition is inactive: 17.6%.

As to `O=[N+]([O-])c1cc([N+](=O)[O-])c(CCNc2ccccc2)c([N+](=O)[O-])c1`, the inhibition was inactive: 6.15%.

Turning to `Cc1ccc(NP(=O)(Oc2ccccc2)Oc2ccccc2)nc1`, the inhibition was inactive: -19.8%.

As to `COc1ccc(C2=NCC(CBr)S2)cc1` (stereo not given), the inhibition is inactive: -12.9%.

Consider `Nc1cc(N)c2nonc2c1[N+](=O)[O-]`, for which the inhibition was inactive: -9.87%.

`CC(C)CC(=O)NC(Sc1ccc(Cl)cc1)C(Cl)(Cl)Cl` (stereo not given): the inhibition is inactive: 5.65%.

Consider `O=C(NC(Sc1ccncn1)C(Cl)(Cl)Cl)c1ccccc1` (stereo not given), for which the inhibition is inactive: -18.6%.

As for `Oc1ccccc1CNc1ccccn1`, the inhibition is inactive: 1.55%.

Consider `Cc1ccc(OP(=O)(Nc2nccs2)Oc2ccc(C)cc2)cc1`, for which the inhibition is inactive: 2.58%.

Consider `COc1ccccc1OP(=O)(Nc1ccc(C)cn1)Oc1ccccc1OC`, for which the inhibition is inactive: 43.5%.

Turning to `CN1CCCC(OC(=O)C(c2ccccc2)c2ccccc2)C1` (stereo not given), the inhibition is inactive: 11.7%.

For `Clc1ccc(Cl)c(NC2=NCC(CBr)S2)c1` (stereo not given), the inhibition is inactive: 2.25%.

On to `NC(=O)c1cc([N+](=O)[O-])cc([N+](=O)[O-])c1N`, for which the inhibition is inactive: 1.77%.

On to `Cc1ccc(N/C(=N/P(=O)(N2CCOCC2)N2CCOCC2)N2CCOCC2)cc1`, for which the inhibition is inactive: 10%.

Take `CN(C(=O)Cc1ccc(Cl)c(Cl)c1)[C@H]1CCCC[C@H]1N1CCCC1`: the inhibition is inactive: -13.1%.

Regarding `CCN(N=Nc1nonc1N)c1nonc1N`, the inhibition is inactive: -10.3%.

For the molecule `CN(C(=O)Cc1ccccc1)C1CC[C@@]2(CCCO2)C[C@@H]1N1CCCC1` (stereo not given in full), the inhibition is inactive: 5.38%.

For `Nc1cccc2ccc([As](=O)(O)O)cc12`, the inhibition was inactive: -3.68%.

Consider `Cc1ccc(NP(=O)(Oc2ccccc2F)Oc2ccccc2F)nc1`, for which the inhibition is inactive: -12.6%.

With `CN(C(=O)Cc1ccc(Cl)c(Cl)c1)[C@H]1CCCC[C@@H]1N1CCCC1`, the inhibition was inactive: -9.86%.

`Cc1cc(SC(NC(=O)c2ccc(F)cc2)C(Cl)(Cl)Cl)ncn1` (stereo not given): the inhibition is inactive: -14.7%.

Take `CCOP(=O)(Nc1ccccc1)OCC`: the inhibition was inactive: -8.84%.

On to `CCn1c(=O)n(C2CCN(CC3CCCCCCC3)C[C@H]2CO)c2ccccc21` (stereo not given in full), for which the inhibition was inactive: -20.2%.

For `CCCC1OP(N)(=O)OCC1CC` (stereo not given), the inhibition was inactive: -11.8%.

With `CC(=O)Nc1ccc([As](=O)(O)O)cc1`, the inhibition was inactive: -4.11%.

As to `O=C(O)c1ccccc1[As](=O)(O)O`, the inhibition is inactive: 7.32%.

As for `O=P(Nc1nc2ccc(Cl)cc2s1)(c1ccccc1)c1ccccc1`, the inhibition is inactive: 0.34%.

`CN(C)P(=O)(N(C)C)n1c(Nc2ccccc2)nnc1-c1ccccc1`: the inhibition was inactive: -17.2%.
